Patent publication US9353115B2, “Immune system modulators” (JANUS BIOTHERAPEUTICS, INC., priority 2011, dated 2016)

By UniProt entry, the sequences of proteins in these tests, tags left out. Residues count along the entry.
UniProt Q9NR96, 26-1032 limits assumed: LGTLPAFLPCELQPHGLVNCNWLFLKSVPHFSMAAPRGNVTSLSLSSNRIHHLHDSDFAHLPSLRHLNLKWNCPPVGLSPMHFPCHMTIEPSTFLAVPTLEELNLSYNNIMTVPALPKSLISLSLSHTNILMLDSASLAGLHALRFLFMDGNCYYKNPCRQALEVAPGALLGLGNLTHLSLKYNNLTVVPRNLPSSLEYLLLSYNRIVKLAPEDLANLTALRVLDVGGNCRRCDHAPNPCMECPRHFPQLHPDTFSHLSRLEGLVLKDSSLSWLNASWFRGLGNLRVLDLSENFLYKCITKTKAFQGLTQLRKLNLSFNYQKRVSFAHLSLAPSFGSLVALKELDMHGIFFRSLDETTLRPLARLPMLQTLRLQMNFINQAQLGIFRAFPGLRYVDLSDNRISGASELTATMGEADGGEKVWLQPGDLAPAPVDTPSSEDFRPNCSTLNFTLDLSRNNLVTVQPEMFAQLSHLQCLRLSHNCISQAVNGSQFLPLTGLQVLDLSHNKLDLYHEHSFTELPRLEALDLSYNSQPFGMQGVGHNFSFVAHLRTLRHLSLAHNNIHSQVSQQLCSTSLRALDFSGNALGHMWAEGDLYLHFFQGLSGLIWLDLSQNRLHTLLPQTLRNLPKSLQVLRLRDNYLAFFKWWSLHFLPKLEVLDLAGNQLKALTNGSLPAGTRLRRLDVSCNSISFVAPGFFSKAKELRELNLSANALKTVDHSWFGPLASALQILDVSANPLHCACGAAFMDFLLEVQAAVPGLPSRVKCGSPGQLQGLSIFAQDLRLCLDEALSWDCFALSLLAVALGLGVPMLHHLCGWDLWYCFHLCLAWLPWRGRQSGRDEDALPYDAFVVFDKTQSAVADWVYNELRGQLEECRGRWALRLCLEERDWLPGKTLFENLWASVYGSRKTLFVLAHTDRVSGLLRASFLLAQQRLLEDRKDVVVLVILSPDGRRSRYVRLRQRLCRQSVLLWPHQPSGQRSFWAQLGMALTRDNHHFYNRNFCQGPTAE

Biological target: human TLR9 (hTLR9) (Homo sapiens (Human), UniProt Q9NR96)
Experiment: TLR9 antagonist assay in HEK-Blue-hTLR9 cells (SEAP reporter, ODN 2006 agonist)
Conditions: read-out: hTLR9 antagonism IC50, inhibition of hTLR9 dependent SEAP production, hTLR9 agonist such as ODN 2006, 1 μM, tested form: sulfate
Source text: HEK-Blue™-hTLR9 cells were obtained from InvivoGen Inc. and used to determine test compound antagonism of human TLR9 (hTLR9) driven responses. HEK-Blue™-hTLR9 cells are designed for studying the stimulation of human TLR9 by monitoring the activation of NF-kB. As described by the manufacturer, “HEK-Blue™-hTLR9 cells were obtained by co-transfection of the hTLR9 gene and an optimized secreted embryonic alkaline phosphatase (SEAP) reporter gene into HEK293 cells. The SEAP reporter gene is placed under the control of the IFN-b minimal promoter fused to five NF-kB and AP-1 binding sites. Stimulation with a TLR9 ligand activates NF-kB and AP-1 which induces the production of SEAP. Levels of SEAP can be easily determined with QUANTI-Blue™ a detection medium that turns purple/blue in the presence of alkaline phosphatase”. […]
Invivogen's QUANTI-Blue™ was prepared following the manufacturer's instructions. […] SEAP levels were determined using a spectrophotometer at 620 nm.
The concentration dependent inhibition of hTLR9 dependent SEAP production was expressed as the concentration of compound which produced half the maximal level of SEAP induced by the hTLR agonist alone. Percent activity was calculated for each observation using the formula: % activity=((observed O.D.−background O.D.)/(agonist only O.D.−background O.D.))*100. […]

CN(C)CCN(C)c1nc(-c2ccccc2)nc2c1ncn2CCN1CCOCC1
IC50: 2740 nM
